From US7229825B2, “Double-transfected cell line useful for the identification of transport inhibitors” (Deutches Krebsforschungszentrum Stiftung des Offentlichen …, priority 2001, dated 2007)

Tested on: human OATP8 and MRP2 (MDCK-MRP2/OATP8 cells)
Test: Transcellular transport of organic anions across MDCK-MRP2/OATP8 cells on Transwell membrane inserts
Conditions: substrate in basolateral compartment, 37° C., apical compartment measured; MDCK-MRP2/OATP8 compared with MDCK-OATP8, MDCK-Co (and MDCK-MRP2) cells

dehydroepiandrosterone 3-sulfate [DHEAS]
transcellular transport (basolateral to apical): much higher velocities
